Measurements taken from patent publication US10604541B2, “Glucokinase activators and methods of using same” (BRISTOL-MYERS SQUIBB COMPANY, priority 2016, dated 2020).

Sequences of proteins named here, by UniProt entry; tags and fusion partners are left off. Residues count along the entry.
UniProt P35557, 1-466 isoform 2: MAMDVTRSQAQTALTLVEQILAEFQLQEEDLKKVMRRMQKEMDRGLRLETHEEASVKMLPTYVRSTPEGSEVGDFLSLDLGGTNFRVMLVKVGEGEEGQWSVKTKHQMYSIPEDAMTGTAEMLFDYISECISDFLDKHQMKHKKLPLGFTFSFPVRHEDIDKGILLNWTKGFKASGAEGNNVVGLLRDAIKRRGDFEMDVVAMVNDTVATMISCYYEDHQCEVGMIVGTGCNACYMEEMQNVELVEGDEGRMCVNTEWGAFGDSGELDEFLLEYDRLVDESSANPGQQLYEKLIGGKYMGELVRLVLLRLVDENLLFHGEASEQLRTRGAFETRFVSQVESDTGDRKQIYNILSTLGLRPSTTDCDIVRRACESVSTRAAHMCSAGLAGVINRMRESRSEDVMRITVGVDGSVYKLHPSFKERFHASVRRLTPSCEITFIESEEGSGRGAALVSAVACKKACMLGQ
UniProt P52792, whole entry: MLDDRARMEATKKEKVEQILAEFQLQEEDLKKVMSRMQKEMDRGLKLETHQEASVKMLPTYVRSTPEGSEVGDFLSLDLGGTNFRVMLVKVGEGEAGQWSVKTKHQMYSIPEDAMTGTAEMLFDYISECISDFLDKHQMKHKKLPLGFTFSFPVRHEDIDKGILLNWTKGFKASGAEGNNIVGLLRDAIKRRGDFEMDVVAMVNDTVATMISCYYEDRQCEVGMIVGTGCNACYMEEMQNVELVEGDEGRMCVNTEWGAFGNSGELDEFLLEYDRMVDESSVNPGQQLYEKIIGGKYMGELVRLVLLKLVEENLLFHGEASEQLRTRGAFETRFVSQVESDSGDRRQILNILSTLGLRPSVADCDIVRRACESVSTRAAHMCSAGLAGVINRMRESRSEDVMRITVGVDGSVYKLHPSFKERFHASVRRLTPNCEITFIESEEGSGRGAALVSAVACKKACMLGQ
UniProt P05177, whole entry: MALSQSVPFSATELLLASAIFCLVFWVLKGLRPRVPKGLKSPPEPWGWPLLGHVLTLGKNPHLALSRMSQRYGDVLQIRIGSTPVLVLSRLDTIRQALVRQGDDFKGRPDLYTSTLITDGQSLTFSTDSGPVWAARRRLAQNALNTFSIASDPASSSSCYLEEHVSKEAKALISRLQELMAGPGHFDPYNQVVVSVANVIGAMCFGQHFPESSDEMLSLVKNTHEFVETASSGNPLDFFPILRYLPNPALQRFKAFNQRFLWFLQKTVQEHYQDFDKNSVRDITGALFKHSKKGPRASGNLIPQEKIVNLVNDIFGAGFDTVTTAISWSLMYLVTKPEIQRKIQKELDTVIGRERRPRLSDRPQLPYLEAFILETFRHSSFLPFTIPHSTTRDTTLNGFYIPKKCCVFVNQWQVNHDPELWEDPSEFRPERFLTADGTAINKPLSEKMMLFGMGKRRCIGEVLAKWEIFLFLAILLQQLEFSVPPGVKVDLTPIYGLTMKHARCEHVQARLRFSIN
UniProt P10632, whole entry: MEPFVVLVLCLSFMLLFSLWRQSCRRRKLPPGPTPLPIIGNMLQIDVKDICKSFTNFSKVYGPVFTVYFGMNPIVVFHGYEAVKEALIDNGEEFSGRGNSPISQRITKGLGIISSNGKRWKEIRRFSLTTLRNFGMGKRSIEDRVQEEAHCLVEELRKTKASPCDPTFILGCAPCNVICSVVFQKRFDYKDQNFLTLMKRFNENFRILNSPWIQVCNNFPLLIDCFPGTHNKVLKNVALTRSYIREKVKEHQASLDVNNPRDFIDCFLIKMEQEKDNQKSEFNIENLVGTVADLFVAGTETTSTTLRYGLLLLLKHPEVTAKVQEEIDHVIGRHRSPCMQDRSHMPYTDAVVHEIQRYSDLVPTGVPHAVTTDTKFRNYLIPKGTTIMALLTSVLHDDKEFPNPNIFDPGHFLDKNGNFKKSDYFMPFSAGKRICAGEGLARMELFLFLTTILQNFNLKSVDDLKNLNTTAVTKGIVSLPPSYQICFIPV
UniProt P11712, whole entry: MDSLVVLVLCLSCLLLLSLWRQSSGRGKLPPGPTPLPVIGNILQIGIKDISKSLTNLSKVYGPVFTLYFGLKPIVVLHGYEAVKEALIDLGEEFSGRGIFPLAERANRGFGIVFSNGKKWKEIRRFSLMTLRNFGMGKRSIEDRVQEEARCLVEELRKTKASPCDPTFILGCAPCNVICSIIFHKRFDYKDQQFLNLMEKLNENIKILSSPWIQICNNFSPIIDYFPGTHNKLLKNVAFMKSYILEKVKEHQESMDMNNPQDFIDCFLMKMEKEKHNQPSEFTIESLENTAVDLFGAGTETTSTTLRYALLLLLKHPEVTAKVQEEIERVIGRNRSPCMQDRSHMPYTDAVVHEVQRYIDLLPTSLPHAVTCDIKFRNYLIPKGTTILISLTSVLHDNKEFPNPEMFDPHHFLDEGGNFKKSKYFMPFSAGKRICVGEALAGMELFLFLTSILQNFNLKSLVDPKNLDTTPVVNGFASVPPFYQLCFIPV
UniProt P33261, whole entry: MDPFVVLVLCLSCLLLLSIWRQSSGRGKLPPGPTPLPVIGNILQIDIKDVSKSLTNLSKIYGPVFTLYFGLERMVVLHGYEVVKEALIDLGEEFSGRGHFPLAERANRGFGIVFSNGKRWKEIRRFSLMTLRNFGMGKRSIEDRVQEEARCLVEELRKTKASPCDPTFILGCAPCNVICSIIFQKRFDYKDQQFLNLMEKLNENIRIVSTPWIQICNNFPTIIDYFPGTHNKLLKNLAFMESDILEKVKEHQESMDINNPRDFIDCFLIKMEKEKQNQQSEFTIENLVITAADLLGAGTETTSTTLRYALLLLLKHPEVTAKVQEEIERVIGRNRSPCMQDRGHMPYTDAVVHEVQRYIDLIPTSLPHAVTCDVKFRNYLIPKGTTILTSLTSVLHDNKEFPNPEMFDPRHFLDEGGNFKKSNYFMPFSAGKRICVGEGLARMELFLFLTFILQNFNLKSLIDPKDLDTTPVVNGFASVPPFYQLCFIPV
UniProt P10635, whole entry: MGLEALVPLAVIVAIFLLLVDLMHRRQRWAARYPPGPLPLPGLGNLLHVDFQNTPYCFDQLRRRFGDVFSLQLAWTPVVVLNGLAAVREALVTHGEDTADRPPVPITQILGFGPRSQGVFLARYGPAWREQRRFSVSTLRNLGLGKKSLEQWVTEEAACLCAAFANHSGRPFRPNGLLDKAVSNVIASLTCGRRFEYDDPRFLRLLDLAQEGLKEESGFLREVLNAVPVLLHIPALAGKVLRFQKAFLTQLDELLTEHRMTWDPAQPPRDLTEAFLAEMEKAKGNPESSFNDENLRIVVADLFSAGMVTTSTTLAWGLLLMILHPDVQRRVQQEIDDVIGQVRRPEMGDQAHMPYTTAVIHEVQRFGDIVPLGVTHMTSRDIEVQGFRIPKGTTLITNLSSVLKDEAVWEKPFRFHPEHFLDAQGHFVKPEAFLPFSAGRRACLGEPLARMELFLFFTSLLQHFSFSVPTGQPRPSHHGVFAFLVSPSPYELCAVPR
UniProt P08684, whole entry: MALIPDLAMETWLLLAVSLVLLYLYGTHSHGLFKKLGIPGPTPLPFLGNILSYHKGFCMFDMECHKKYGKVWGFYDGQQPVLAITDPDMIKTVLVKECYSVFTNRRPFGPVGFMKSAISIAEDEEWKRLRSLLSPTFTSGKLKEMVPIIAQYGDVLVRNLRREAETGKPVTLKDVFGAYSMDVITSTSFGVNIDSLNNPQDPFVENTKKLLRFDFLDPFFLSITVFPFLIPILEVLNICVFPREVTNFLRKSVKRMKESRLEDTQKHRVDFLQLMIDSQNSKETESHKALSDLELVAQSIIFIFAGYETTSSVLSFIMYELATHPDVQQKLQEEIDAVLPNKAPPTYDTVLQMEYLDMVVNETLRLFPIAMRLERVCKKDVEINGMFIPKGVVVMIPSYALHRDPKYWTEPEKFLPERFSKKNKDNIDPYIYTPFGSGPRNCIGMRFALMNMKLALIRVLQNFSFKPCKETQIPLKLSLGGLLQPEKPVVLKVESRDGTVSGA

Tests used:
Human Glucokinase = Human Glucokinase (Homo sapiens, UniProt P35557); test: Glucokinase tandem enzymatic assay (human GK); assay type: biochemical; conditions: for IC50: read-out: Human Glucokinase IC50
Mouse Glucokinase = Mouse Glucokinase (Mus musculus, UniProt P52792); test: Glucokinase activation, mouse GK; assay type: biochemical; conditions: read-out: Mouse Glucokinase EC50
CYP450 1A2 = CYP450 1A2 (Homo sapiens, UniProt P05177); test: CYP450 1A2 inhibition; assay type: in vitro ADME; conditions: read-out: CYP450 1A2 IC50
CYP450 2C8 = CYP450 2C8 (Homo sapiens, UniProt P10632); test: CYP450 2C8 inhibition; assay type: in vitro ADME; conditions: read-out: CYP450 2C8 IC50
CYP450 2C9 = CYP450 2C9 (Homo sapiens, UniProt P11712); test: CYP450 2C9 inhibition; assay type: in vitro ADME; conditions: read-out: CYP450 2C9 IC50
CYP450 2C19 = CYP450 2C19 (Homo sapiens, UniProt P33261); test: CYP450 2C19 inhibition; assay type: in vitro ADME; conditions: read-out: CYP450 2C19 IC50
CYP450 2D6 = CYP450 2D6 (Homo sapiens, UniProt P10635); test: CYP450 2D6 inhibition; assay type: in vitro ADME; conditions: read-out: CYP450 2D6 IC50
CYP450 3A4 = CYP450 3A4 (Homo sapiens, UniProt P08684); test: CYP450 3A4 inhibition; assay type: in vitro ADME; conditions: read-out: CYP450 3A4 IC50
[1] = Metabolic stability in human liver microsomes; assay type: in vitro ADME
[2] = Metabolic stability, mouse; assay type: in vitro ADME
Aqueous solubility = assay type: physicochemical
[3] = system: male DIO (diet-induced obese) C57BL/6J mice; test: Oral glucose tolerance test (OGTT) in DIO mice; conditions: AUC 0-120 min
[4] = Pharmacokinetic study in mice (plasma and liver); assay type: in vivo, mouse; conditions: C57/B16J mice, 10 mg/kg oral; for Plasma AUC(4 hr): 0-4 hr; for Plasma (2 hr): 2 hr post dose; for Plasma (4 hr): 4 hr post dose; for Plasma (0.5 hr): 0.5 hr post dose; for Plasma (1 hr): 1 hr post dose

Compound	IC50 (Human Glucokinase) [µM]	EC50 (Mouse Glucokinase) [µM]	IC50 (CYP450 1A2) [µM]	IC50 (CYP450 2C8) [µM]	IC50 (CYP450 2C9) [µM]	IC50 (CYP450 2C19) [µM]	IC50 (CYP450 2D6) [µM]	IC50 (CYP450 3A4) [µM]	Metabolic Stability Human Liver Microsomes (0.5 μM) [1] [%]	Metabolic Stability Mouse (0.5 μM) [2] [%]	Aqueous Solubility (Aqueous solubility) [µg/mL]	Glucose lowering (AUC) (120 min) ([3]; oral dose 10 μmol/kg) [%]	Liver/Plasma ratio [4]	Plasma AUC(4 hr) [4] [µM·h]	Plasma (2 hr) [4] [nM]	Plasma (4 hr) [4] [nM]	Glucose lowering (AUC) (120 min) ([3]; oral dose 30 μmol/kg) [%]	Plasma (0.5 hr) [4] [nM]	Plasma (1 hr) [4] [nM]	other results
CCS(=O)(=O)c1ccc(Oc2cc(O[C@@H](C)CO)cc(C(=O)Nc3ccn(C)n3)c2)cn1	0.134	0.048	> 6.7	> 6.7	> 6.7	> 20	> 6.7	> 6.7	100	100	730	−67	1.1	36.53	7031 ± 1179	1699 ± 28				EC50 (Human Glucokinase; read-out: Human Glucokinase EC50): 0.064 µM
O=C(O)c1ccc(NC(=O)[C@H](CC2CCCC2)n2cnc(C(F)(F)F)c2)nc1				17.6					96	92		−20		36.91		6712 ± 2591	−43	7285 ± 856		
CCOP(=O)(Cc1csc(NC(=O)c2cc(O[C@@H](C)CO)cc(O[C@@H](C)Cc3ccccc3)c2)n1)OCC	0.156	0.024	> 40		1	0.6	> 40	> 40	26	64			36.8	3.28	754 ± 210	214 ± 107	−48	1876 ± 302	1542 ± 544	
CCO[P@](C)(=O)Cc1csc(NC(=O)c2cc(Oc3ccc(S(C)(=O)=O)cc3)cc(O[C@@H](C)COC)c2)n1 (single isomer, unassigned)	0.079	0.075	> 40		8.5	32.5	> 40	> 40	54	90	9		16.9	4.21	467 ± 49	485 ± 290		435 ± 100	571 ± 18	Glucose lowering (AUC) (120 min) ([3]; oral dose 10 mg/kg = 17 μmol/kg): −50%; Liver (1 hr) ([4]; liver concentration 1 hr post dose): 9.68 ± 0.351 µM
